The source of these data is ChEMBL document CHEMBL1128541 (J Med Chem, 1995).

This assay concerns the target cGMP-specific 3',5'-cyclic phosphodiesterase (Homo sapiens, UniProt O76074). The assay is described as follows: Inhibitory activity against phosphodiesterase 5 from human platelets.

As usually defined, the IC50 is the concentration that gives 50% inhibition. Higher therefore signals weaker potency in that assay. Compound `Cl.Cl.Clc1ccc2nc(-n3ccnc3)nc(NCc3ccccc3)c2c1` had an IC50 of 2.8 nM.
